Two substances from patent US5623049A, “Nucleic acid-binding oligomers possessing N-branching for therapy and diagnostics” (Bayer Aktiengesellschaft, priority 1993, dated 1997) can be followed below.

Chains of the proteins cited; added tags and fusions are not shown. Residues count along the entry.
UniProt P0C1U8, 69-336: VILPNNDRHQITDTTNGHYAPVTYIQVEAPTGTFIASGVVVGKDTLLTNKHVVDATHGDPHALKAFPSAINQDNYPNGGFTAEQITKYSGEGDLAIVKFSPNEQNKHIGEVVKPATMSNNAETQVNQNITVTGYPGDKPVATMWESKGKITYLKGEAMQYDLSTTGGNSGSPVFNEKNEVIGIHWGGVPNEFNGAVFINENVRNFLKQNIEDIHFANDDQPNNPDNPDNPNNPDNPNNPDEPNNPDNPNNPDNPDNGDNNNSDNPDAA

The data set addresses V8 Protease (GLU--C) (Staphylococcus aureus, UniProt P0C1U8). The note with it: 75 μg of oligomer, 5 μl of protease, 37° C., 3 hours; PAGE, UV shadowing, silver staining.

“H--(III T)8 --Ala--OH [H-(IIIT)8 -Ala--OH]”: the “Stability towards V8 Protease (GLU--C)” value is “+”.
Regarding “H--(III T)12 --Lys--OH [H-(IIIT)12 -Lys--OH]”, the “Stability towards V8 Protease (GLU--C)” value was “+”.
